Experiments:
Format in all cases: biochemical
[1] = target: T1, AmpC SBL from Escherichia coli (AmpCEC) (Escherichia coli, UniProt P00811); assay: AmpCEC inhibition pIC50 with varied preincubation time and pH (FC-5)
T1 construct: made in house
Procedure: (§1) Assays were performed and analyzed as described previously ([34]). In summary, assays in the presence of inhibitors were carried out under steady-state conditions monitoring hydrolysis of the fluorescent substrate FC-5 ([33]) in 100 mM phosphate buffer, pH 7.5, supplemented with 0.01% (vol/vol) Triton X-100. Fluorescence was measured using a PHERAstar (BMG Labtech) plate reader, recording emission spectra at an excitation wavelength of 380 nm and emission wavelength of 460 nm. […] The pseudo first-order rate constant, kobs, and the apparent inhibition constant, Kiapp, were obtained by assaying 100 nM AmpCEC with 5 μM FC-5 in the presence of various concentrations of the inhibitor. Reactions were initiated by addition of AmpCEC and immediately monitored continuously over 30 s. Activity was fitted to an exponential course in relation to the uninhibited enzyme and a no-enzyme control to give initial rate constants (kobs) (Fig. S1 and Table S2), as described previously ([49]). The second-order rate constant (k2/K) was obtained from linear regression of measured kobs values against inhibitor concentrations (see Fig. S3b in the supplemental material) and corrected by the Michaelis constant (Km) and concentration of the substrate. Kiapps ([50]) were determined by linear regression of the reciprocals of the initial rates against inhibitor concentration (Fig. S3a) and corrected using the experimentally determined substrate Km and substrate concentration. Inhibitor off rates (koff) were measured using the jump-dilution method ([51]); thus, AmpCEC (1 μM) was incubated with the respective inhibitor (10 μM) for 30 min at room temperature and diluted 100,000-fold in the assay buffer to a final enzyme concentration of 10 pM and then immediately assayed using 25 μM (final concentration) FC-5. Off rates were determined from exponential regression in relation to turnover of no enzyme and no inhibitor controls (Fig. S3c). Half-lives of the enzyme-inhibitor complexes were directly calculated from the measured koff values.
pre-incubated with the inhibitors for the indicated times at room temperature and assayed using 5 μM FC-5 [1].
(1 picture or pasted object on this page, not shown here)
AmpCEC (500 pM) was preincubated
with the inhibitors for the indicated times at room temperature, then assayed using 5 μM FC-5 [1]. Buffer: 50 mM
regression (Figure S2), as described in the Materials and Methods. ND: Not determined.

The chains behind the UniProt entries cited, without tags or fusion partners. Residues count along the entry.
UniProt P00811, 20-377: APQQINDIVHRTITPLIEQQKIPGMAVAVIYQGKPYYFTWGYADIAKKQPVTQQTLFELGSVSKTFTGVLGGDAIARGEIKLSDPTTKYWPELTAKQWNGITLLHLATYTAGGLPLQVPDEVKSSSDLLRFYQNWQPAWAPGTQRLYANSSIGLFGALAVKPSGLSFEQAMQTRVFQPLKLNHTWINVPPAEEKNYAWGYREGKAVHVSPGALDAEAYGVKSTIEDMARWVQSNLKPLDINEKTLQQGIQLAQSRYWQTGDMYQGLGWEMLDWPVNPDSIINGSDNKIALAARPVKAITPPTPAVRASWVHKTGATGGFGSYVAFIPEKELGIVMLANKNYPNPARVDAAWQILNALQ

[2] = target: T1, AmpC SBL from Escherichia coli (AmpCEC); assay: as above; remark: listed apart in the source
[3] = target: T1, AmpC SBL from Escherichia coli (AmpCEC); assay: Steady-state competitive inhibition kinetics of AmpCEC with fluorescent substrate FC-5 (kobs, Kiapp, k2/K)
Procedure: as §1, with “Activity was fitted to an exponential course in relation to the uninhibited enzyme and a no-enzyme control to give initial rate constants (kobs) (Fig. S1 and Table S2), as described previously ([49]).” left out, “Inhibitor off rates (koff) were measured using the jump-dilution method ([51]); thus, AmpCEC (1 μM) was incubated with the respective inhibitor (10 μM) for 30 min at room temperature and diluted 100,000-fold in the assay buffer to a final enzyme concentration of 10 pM and then immediately assayed using 25 μM (final concentration) FC-5.” left out, “Half-lives of the enzyme-inhibitor complexes were directly calculated from the measured koff values.” left out

With `NC(=O)[C@@H]1CC[C@@H]2CN1C(=O)N2OS(=O)(=O)O` [AVI, avibactam] the IC50 ([1]; pIC50, 0 min preincubation, pH 7.5, 500 pM AmpCEC, 5 μM FC-5) was 240 nM, the IC50 ([1]; pIC50, 10 min preincubation, pH 7.5) was 126 nM and the IC50 ([1]; pIC50, 30 min preincubation, pH 7.5) was 55 nM. The IC50 ([1]; pIC50, 60 min preincubation, pH 7.5) was 22.9 nM, the IC50 ([1]; pIC50, 360 min preincubation, pH 7.5, 500 pM AmpCEC, 5 μM FC-5) was 6.92 nM and the IC50 ([2]; pIC50, 0 min preincubation, pH 7.0) was 295 nM. The IC50 ([2]; pIC50, 0 min preincubation, pH 8.0) was 204 nM, the IC50 ([2]; pIC50, 10 min preincubation, pH 7.0) was 166 nM and the IC50 ([2]; pIC50, 10 min preincubation, pH 8.0) was 70.8 nM. For the same compound, the IC50 ([2]; pIC50, 30 min preincubation, pH 7.0) was 61.7 nM, the IC50 ([2]; pIC50, 60 min preincubation, pH 7.0) was 30.2 nM and the IC50 ([2]; pIC50, 60 min preincubation, pH 8.0) was 15.5 nM. It also gave an IC50 ([2]; pIC50, 360 min preincubation, pH 7.0) of 9.55 nM, an IC50 ([2]; pIC50, 360 min preincubation, pH 8.0) of 8.51 nM and a Ki [3] of 7400 ± 300 nM.
